Measurements as given in US20240425441A9, “MODULATORS OF LIPOXYGENASE AND CYCLOOXYGENASE ENZYME ACTIVITY” (Université de Moncton, priority 2016, published 2024).

Chains of the proteins cited; added tags and fusions are not shown. Residues count along the entry.
UniProt P35354, 18-604: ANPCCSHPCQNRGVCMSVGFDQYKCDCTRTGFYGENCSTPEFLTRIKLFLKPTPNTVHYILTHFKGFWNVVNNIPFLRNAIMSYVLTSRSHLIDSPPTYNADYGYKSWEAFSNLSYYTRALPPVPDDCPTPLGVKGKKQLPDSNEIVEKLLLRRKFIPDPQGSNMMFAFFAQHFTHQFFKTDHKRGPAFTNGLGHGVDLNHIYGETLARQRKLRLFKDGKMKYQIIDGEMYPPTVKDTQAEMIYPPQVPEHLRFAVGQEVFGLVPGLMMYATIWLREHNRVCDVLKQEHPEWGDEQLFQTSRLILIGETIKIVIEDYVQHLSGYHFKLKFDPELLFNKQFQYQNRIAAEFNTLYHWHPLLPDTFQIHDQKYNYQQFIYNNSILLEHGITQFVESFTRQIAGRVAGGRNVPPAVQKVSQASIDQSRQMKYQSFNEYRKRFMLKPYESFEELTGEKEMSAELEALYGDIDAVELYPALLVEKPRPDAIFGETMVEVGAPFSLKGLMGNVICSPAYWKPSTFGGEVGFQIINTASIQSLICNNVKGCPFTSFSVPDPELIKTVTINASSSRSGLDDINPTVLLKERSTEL

Target: COX-2 (Homo sapiens (Human), UniProt P35354)
Assay: COX-2 activity, products from LPS-primed human neutrophils
Format: cell-based
Conditions: 100% no inhibition, 0% complete inhibition, read-out: Avg % of control

O=C(/C=C/c1ccc(O)c(O)c1)OCCc1ccccc1 [CAPE, caffeic acid phenethyl ester, reference compound]
remaining activity at 1 µM: 52.4%
